{"source": "patent EP4843994A1", "about": "“NOVEL PEPTIDE HAVING MUSCLE FORMATION-PROMOTING ACTIVITY, ANTI-OBESITY ACTIVITY AND ANTI-DIABETIC ACTIVITY AND USES THEREOF” (dated 2026)", "key": {"3T3-L1 cells": {"system": "3T3-L1 cells", "assay": "Expression of insulin resistance and sensitivity related proteins in adipocytes (Western blot)", "settings": "3T3-L1 cells differentiated with MDI cocktail, peptide 5 µM, 50 µM, 48 hours", "method": "3T3-L1 cells (preadipocytes, American Type Culture Collection) were cultured in DMEM medium containing 2% BCS (Bovine Calf Serum) (Welgene, Korea). To differentiate 3T3-L1 cells into adipocytes, they were seeded into 12-well culture plates at a concentration of 1 x 10^5 cells/well, and when they became confluent (Day=2), the medium was changed once more and cultured for an additional 48 hours. After 48 hours (Day=0), the culture medium was replaced with DMEM medium containing 10% FBS, 1% P/S, 1 µg/ml insulin (Sigma, USA), 0.5 mM isobutylmethylxanthine (IBMX) (Sigma, USA) and 1 µM Dexamethasone (Sigma, USA) and cultured. After 2 days (Day=2), the medium was replaced with DMEM containing 10% FBS, 1% P/S, and 1 µg/ml insulin, and cultured. After 3 days (Day=5), the medium was replaced with one containing only 10% FBS and 1% P/S, and peptides (5 µM, 50 µM) were added and cultured for 48 hours. After culture, lysis buffer was added to lyse the cells, and the protein was obtained by centrifugation at 4°C and 12,000 rpm for 30 minutes. The obtained protein was then quantified using a BCA kit. Subsequently, the protein was electrotransferred onto a membrane after performing SDS-PAGE (sodium dodecyl sulfate-polyacrylamide gel electrophoresis). The membrane to which the protein was attached was blocked by treatment with 5% skim milk, and then the primary antibody was incubated overnight at 4°C. The primary antibodies used are as follows: anti-pIRS (Tyr612) antibody (Invitrogen, USA); anti-GLUT4 antibody (Invitrogen, USA); anti-pIRS (Ser302) antibody (Cell signaling Technology, USA); anti-P70S6K antibody (Cell signaling Technology, USA); anti-β-actin antibody (Santa Cruz, USA). The reaction mixture was washed with PBS-T, then reacted with secondary antibodies (Peroxidase-conjugated AffiniPure Goat Anti-Rabbit IgG (H+L), Jackson immunoResearch, USA; Peroxidase-conjugated AffiniPure Goat Anti-Mouse IgG (H+L), Jackson immunoResearch, USA) at room temperature for 1 hour, washed again with PBS-T, and then visualized by treatment with a Western detection reagent (Elpis Biotech, Daejeon, Korea) using Gel Doc (Bio-Rad, Hercules, CA, USA).\nIn the above experiment, differentiation was induced in 3T3-L1 preadipocytes with an MDI cocktail for 5 days, and then the insulin sensitivity-promoting effect was confirmed by measuring the expression levels of insulin sensitivity or resistance proteins upon peptide treatment. As a result of the experiment, peptide treatment in 3T3-L1 cells increased the expression levels of pIRS(Tyr612) and GLUT4, which are factors related to insulin sensitivity, while decreasing the expression levels of pIRS(Ser302) and p70S6K, which are factors related to insulin resistance (FIGS. 14A and 14B)."}, "C2C12 cells": {"system": "C2C12 cells", "assay": "Expression of proliferation-related marker genes in myoblasts (RT-PCR)", "settings": "peptide 5 µM, 50 µM, one hour", "method": "C2C12 cells (mouse-derived myoblasts) were cultured in DMEM medium containing 1% P/S and 10% FBS. When cell confluency reached 70 to 80%, cells were seeded into 6-well culture plates at a concentration of 5 x 10^5 cells/2 ml. On the next day, the medium was replaced with serum-free DMEM (1% P/S), and after about 4 hours, was treated with peptides (5 µM, 50 µM), and one hour after peptide treatment, the cells were harvested and RNA was extracted using Trizol (Thermo Fisher Scientific, USA). DNA complementary to the extracted RNA was synthesized using TOPScript™ RT DryMIX (enzynomics, Korea), and then polymerase chain reaction (PCR) was performed on the genes of factors (markers) involved in cell proliferation using TOPsimple™ DryMIX-nTaq (enzynomics, Korea). Next, the reaction products were run on a 1.5% agarose gel to compare the mRNA expression levels of the aforementioned factors (markers) for each sample. The primer sequences for the genes used in the PCR are listed in Table 2 below, and the GAPDH gene was used as a control group."}, "HepG2 cells": {"system": "HepG2 cells", "assay": "Expression of insulin resistance and sensitivity related proteins in hepatocytes (Western blot)", "settings": "500 µM oleic acid (insulin resistance), peptide 5 µM, 50 µM, 48 hours", "method": "HepG2 cells (human-derived hepatocytes) were cultured in DMEM medium containing 1% P/S and 10% FBS. When cell confluency reached approximately 70 to 80%, cells were seeded into a 12-well culture plate at a concentration of 2 x 10^5 cells/ml. Subsequently, when cell confluency in the 12-well culture plate reached approximately 70 to 80%, the medium was replaced with serum-free DMEM medium. After 4 hours, insulin resistance was induced by replacing the medium with serum-free DMEM (1% BSA) supplemented with 500 µM oleic acid (Sigma, St. Louis, MO, USA). After induction for 24 hours, the cells were replaced with serum-free DMEM (1% BSA) supplemented with 500 µM oleic acid (Sigma, St. Louis, MO, USA) and peptides (5 µM, 50 µM), and cultured for 48 hours. After culture, lysis buffer was added to lyse the cells, and the cell lysate was centrifuged at 12,000 rpm and 4°C for 30 minutes to obtain the protein. The obtained protein was quantified using a BCA kit. The protein was electrotransferred onto a membrane after performing SDS-PAGE (sodium dodecyl sulfate-polyacrylamide gel electrophoresis). After the membrane onto which the protein had been electrotransferred was blocked by treatment with 5% skim milk, it was treated with the primary antibody and incubated overnight at 4°C. The primary antibodies used are as follows: anti-pmTOR antibody (Cell signaling Technology, USA); anti-pJNK antibody (Santa Cruz, USA); anti-GLUT4 antibody (Invitrogen, USA); anti-SIRT1 antibody (Cell signaling Technology, USA); anti-pAMPKα antibody (Cell signaling Technology, USA); anti-β-actin antibody (Santa Cruz, USA). The reactant was washed with PBS-T, then reacted with secondary antibodies (Peroxidase-conjugated AffiniPure Goat Anti-Rabbit IgG (H+L), Jackson immunoResearch, USA; Peroxidase-conjugated AffiniPure Goat Anti-Mouse IgG (H+L), Jackson immunoResearch, USA) at room temperature for 1 hour, washed again with PBS-T, and then visualized by treatment with a Western detection reagent (Elpis Biotech, Daejeon, Korea) using Gel Doc (Bio-Rad, Hercules, CA, USA).\nThrough the above experiment, it was aimed to determine whether insulin sensitivity is induced by treating HepG2 cells, in which an insulin resistance environment was induced by oleic acid treatment, with peptides. Whether insulin sensitivity was induced was confirmed by analyzing the expression levels of factors related to insulin resistance or sensitivity using Western blot."}}}
{"smiles": "C[C@@H](O)[C@H](NC(=O)CNC(=O)[C@@H](N)Cc1c[nH]cn1)C(=O)N[C@@H](Cc1ccc(O)cc1)C(=O)O", "values": [{"measurement": "expression level of GLUT4", "setting": "3T3-L1 cells", "result": "increased"}, {"measurement": "expression level of p70S6K", "setting": "3T3-L1 cells", "result": "decreasing"}, {"measurement": "expression level of pIRS(Ser302)", "setting": "3T3-L1 cells", "result": "decreasing"}, {"measurement": "expression level of pIRS(Tyr612)", "setting": "3T3-L1 cells", "result": "increased"}, {"measurement": "expression of CDK4 gene", "setting": "C2C12 cells", "result": "significantly increased"}, {"measurement": "expression of NDRG2 gene", "setting": "C2C12 cells", "result": "significantly increased"}, {"measurement": "expression of PCNA gene", "setting": "C2C12 cells", "result": "significantly increased"}, {"measurement": "expression level of GLUT4", "setting": "HepG2 cells", "result": "increased again"}, {"measurement": "expression level of SIRT1", "setting": "HepG2 cells", "result": "increased again"}, {"measurement": "expression level of pAMPKα", "setting": "HepG2 cells", "result": "increased again"}, {"measurement": "expression level of pJNK", "setting": "HepG2 cells", "result": "decreased again"}, {"measurement": "expression level of pmTOR", "setting": "HepG2 cells", "result": "decreased again"}]}
